In PubChem BioAssay AID501 (PCMD, 2006):
The list shows a part of the results, in another mix than the full data. Calls of active or inactive are those of the source. Rule as the data show it: active = inhibition above about 32% (passing the limit was not always enough); inconclusive = no clear call, values can overlap the other calls.

The chains behind the UniProt entries cited, without tags or fusion partners. Residues count along the entry.
UniProt P25774, 115-331 limits assumed: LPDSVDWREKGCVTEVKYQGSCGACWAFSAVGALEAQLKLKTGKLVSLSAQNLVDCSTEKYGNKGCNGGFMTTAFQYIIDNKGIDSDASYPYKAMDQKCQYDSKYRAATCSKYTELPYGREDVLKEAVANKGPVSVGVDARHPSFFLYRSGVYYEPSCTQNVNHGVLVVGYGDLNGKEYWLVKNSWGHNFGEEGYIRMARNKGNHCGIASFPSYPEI

The compounds below were run against Cathepsin S (Homo sapiens) (UniProt P25774) (assay: blockers of CTSS protease activity – biochemical, compound mixtures (AID 501;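 also: 0% = enzyme without compound and 100% = blank without enzyme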)). Conditions: recombinant cathepsin S, AMC dipeptide fluorescence, pooled mixtures; stronger effect = higher value;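 tested at 5 µM per compound within 10-compound mixtures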.

Question: With `CP(=O)(Nc1ccccc1F)Oc1ccccc1` (stereo not drawn) as the compound, how does the inhibition read?
Answer: Its inhibition is inactive: -5.58%.

Question: How did the inhibition turn out when `CN(C)CCOC(=O)C(O)(c1ccccc1)C1CCCCC1` (stereo not drawn) was run?
Answer: Its inhibition is inactive: 5.22%.

Question: `CCOP(C)(=S)SCC(=O)NC(C)(CC)C(=O)O` (stereo not drawn) was tested. Which inhibition did it give?
Answer: Its inhibition is inactive: 16.1%.

Question: How did the inhibition turn out when `Cc1ccccc1NP(C)(=O)Nc1ccccc1C` was run?
Answer: Its inhibition is inactive: 4.28%.

Question: For `CP(=O)(Nc1ccc2c(c1)OCCO2)Oc1ccccc1` (stereo not drawn), which inhibition is on record?
Answer: Its inhibition is inactive: 18.3%.

Question: `COc1ccccc1OP(C)(=O)Nc1c(C)n(C)n(-c2ccccc2)c1=O` (stereo not drawn) was tested. Which inhibition did it give?
Answer: The inhibition was inactive: 17.4%.

Question: `CP(=O)(Oc1ccccc1)N1CCOC1=O` (stereo not drawn) was tested. Which inhibition did it give?
Answer: The inhibition was inactive: -0.355%.

Question: For `CCN(CC)CC(O)COC(=O)C(O)(c1ccccc1)C1CCCCC1` (stereo not drawn), which inhibition is on record?
Answer: The inhibition was inactive: -1.98%.

Question: Which inhibition does the source give for `COc1ccccc1OP(C)(=O)Nc1ccc(C)c(C)c1` (stereo not drawn) here?
Answer: Its inhibition is inactive: 4.1%.

Question: Which inhibition does the source give for `Cc1nc2ccc3ccccc3c2o1.O=[N+]([O-])c1cc([N+](=O)[O-])c(O)c([N+](=O)[O-])c1` here?
Answer: Its inhibition is inactive: 13.3%.

Question: For `CP(=O)(Nc1ccccn1)Oc1ccccc1` (stereo not drawn), which inhibition is on record?
Answer: Its inhibition is inactive: 1.36%.

Question: With `Cc1ccc(NP(C)(=O)Oc2ccccc2)c(C)c1` (stereo not drawn) as the compound, how does the inhibition read?
Answer: The inhibition was inactive: 2.69%.

Question: `COc1ccccc1OP(C)(=O)Nc1ccc(C)cc1` (stereo not drawn) was tested. Which inhibition did it give?
Answer: Its inhibition is inactive: 1.81%.

Question: With `CP(=S)(Nn1cnnc1)Oc1ccccc1` (stereo not drawn) as the compound, how does the inhibition read?
Answer: Its inhibition is inactive: 11.3%.

Question: How did the inhibition turn out when `CP(=O)(NC(=O)Nc1ccccc1)Oc1ccccc1` (stereo not drawn) was run?
Answer: Its inhibition is inactive: -6.41%.

Question: Which inhibition does the source give for `CCOP(C)(=S)SCC(=O)NC(C)C(=O)O` (stereo not drawn) here?
Answer: The inhibition was inactive: 9.35%.

Question: How did the inhibition turn out when `Cc1nc2ccc3ccccc3c2s1.O=[N+]([O-])c1cc([N+](=O)[O-])c(O)c([N+](=O)[O-])c1` was run?
Answer: The inhibition was inactive: 2.62%.

Question: With `Cc1ccc(C)c(NP(C)(=O)Oc2ccccc2)c1` (stereo not drawn) as the compound, how does the inhibition read?
Answer: The inhibition was inactive: 17.3%.
